Key:
Conditions in all cases: dose 1.0 µmol/L, time 1.0 hrs
[1] = biological target: Macrophage colony-stimulating factor 1 receptor (Homo sapiens) (UniProt P07333)
[2] = biological target: NT-3 growth factor receptor (Homo sapiens) (UniProt Q16288)
[3] = biological target: BDNF/NT-3 growth factors receptor (Homo sapiens) (UniProt Q16620)

Amino acid sequences for entries named in this document (tags omitted).
UniProt P07333, whole entry: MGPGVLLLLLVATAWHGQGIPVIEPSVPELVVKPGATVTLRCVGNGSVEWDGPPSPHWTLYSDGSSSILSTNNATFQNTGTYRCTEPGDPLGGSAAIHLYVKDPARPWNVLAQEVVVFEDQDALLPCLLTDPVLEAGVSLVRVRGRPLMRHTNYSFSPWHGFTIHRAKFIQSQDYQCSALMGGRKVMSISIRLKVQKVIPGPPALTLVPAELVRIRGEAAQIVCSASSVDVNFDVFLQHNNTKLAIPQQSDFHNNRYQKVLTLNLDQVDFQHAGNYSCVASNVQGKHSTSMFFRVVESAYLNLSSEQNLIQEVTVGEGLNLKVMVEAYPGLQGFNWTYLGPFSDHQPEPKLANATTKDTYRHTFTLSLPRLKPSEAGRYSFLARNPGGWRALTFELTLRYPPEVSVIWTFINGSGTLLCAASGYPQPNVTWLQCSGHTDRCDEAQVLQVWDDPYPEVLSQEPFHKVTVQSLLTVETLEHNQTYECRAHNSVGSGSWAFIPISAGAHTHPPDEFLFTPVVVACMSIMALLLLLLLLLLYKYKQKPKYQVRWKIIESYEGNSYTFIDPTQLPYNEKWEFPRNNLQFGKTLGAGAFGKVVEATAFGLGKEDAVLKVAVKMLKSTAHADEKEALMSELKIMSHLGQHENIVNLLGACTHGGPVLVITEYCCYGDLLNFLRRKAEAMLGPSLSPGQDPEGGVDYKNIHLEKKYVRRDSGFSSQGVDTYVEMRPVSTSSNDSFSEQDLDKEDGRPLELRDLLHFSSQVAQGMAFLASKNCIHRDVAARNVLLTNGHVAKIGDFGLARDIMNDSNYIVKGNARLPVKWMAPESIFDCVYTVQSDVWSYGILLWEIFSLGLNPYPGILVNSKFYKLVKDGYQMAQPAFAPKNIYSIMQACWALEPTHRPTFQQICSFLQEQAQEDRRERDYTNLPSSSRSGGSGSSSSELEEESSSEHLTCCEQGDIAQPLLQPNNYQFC
UniProt Q16288, whole entry, looked up: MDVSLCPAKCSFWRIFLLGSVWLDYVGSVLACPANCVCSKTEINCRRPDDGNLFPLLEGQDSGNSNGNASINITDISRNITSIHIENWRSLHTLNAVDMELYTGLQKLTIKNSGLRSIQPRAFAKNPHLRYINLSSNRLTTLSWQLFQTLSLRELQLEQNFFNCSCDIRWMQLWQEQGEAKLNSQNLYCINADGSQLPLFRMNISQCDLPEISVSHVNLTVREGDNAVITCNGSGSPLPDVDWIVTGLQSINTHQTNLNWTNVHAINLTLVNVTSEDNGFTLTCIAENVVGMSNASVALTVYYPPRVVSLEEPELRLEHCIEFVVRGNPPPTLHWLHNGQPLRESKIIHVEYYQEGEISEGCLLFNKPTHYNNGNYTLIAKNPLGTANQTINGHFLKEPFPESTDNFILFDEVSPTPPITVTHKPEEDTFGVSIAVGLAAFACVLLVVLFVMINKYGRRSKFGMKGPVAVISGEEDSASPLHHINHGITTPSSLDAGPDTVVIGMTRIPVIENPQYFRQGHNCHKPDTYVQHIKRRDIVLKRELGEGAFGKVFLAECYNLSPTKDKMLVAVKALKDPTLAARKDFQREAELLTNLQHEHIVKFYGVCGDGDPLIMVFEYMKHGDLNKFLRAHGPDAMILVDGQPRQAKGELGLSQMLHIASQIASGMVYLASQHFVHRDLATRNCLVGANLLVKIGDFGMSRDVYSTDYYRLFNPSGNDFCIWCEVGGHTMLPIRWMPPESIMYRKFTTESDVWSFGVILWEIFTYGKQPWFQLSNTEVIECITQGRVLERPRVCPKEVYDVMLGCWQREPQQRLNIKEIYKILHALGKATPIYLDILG
UniProt Q16620, whole entry, looked up: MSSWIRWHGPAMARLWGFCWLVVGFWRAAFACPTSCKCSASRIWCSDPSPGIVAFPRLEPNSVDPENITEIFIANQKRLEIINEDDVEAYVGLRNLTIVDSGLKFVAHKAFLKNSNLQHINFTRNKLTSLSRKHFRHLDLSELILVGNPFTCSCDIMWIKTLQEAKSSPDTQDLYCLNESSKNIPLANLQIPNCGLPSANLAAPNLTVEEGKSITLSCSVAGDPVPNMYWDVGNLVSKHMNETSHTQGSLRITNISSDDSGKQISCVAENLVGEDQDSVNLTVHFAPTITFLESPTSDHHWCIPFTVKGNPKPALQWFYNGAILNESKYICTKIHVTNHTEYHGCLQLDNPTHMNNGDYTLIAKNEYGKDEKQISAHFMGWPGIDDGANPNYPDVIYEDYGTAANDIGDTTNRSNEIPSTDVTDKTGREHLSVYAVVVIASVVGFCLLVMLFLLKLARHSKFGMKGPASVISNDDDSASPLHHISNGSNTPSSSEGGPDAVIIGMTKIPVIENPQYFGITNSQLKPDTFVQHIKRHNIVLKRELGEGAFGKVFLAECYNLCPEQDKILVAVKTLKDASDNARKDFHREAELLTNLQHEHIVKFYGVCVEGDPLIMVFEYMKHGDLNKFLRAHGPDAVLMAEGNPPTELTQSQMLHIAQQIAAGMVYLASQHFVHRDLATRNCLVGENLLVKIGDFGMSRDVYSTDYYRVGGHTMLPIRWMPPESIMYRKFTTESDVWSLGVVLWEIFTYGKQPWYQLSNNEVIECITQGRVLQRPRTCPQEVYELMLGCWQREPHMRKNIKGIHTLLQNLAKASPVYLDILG

inhibition [1]: 103%
inhibition [2]: 97%
inhibition [3]: 99%
Structure (SMILES): CN1CCN(C(=O)c2cc3cc(NC(=O)c4cc(N5CCC[C@@H]5c5cc(F)ccc5F)c[nH]c4=O)ccc3o2)CC1
